## Apparent affinities of Ab-14 variants for a coronavirus HR2 peptide

Values reported by Li et al. 2023, doi:10.1038/s41467-023-39022-2 (FLAb copy).

Target: peptide PDVDLGDISGINAS, taken from heptad repeat 2 (HR2) of SARS-CoV-2 spike.

Each scFv is VH, a 15-residue (Gly4Ser)3 linker, VL, as in the parent Ab-14, and differs from it in the CDRs of the heavy chain only.
VH: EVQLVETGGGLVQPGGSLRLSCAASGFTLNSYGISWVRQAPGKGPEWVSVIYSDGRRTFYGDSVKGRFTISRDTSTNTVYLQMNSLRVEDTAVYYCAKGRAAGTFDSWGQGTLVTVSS
VL: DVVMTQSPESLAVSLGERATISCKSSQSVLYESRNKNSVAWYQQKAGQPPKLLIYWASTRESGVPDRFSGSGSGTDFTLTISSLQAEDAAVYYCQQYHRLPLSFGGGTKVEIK

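The parent was found by panning a naive human phage display library on the peptide. This is the validation round: designs drawn from the data on random variants, tested in the same kind of assay. Group labels follow the data file (En: ensemble of fine-tuned language models; HC: hill climbing; Gen: genetic algorithm; Gibbs: Gibbs sampling; a sequence that several methods proposed may carry one label only). The scFvs were displayed on barcoded MATa yeast, the peptide on MATalpha yeast. Binding brings cells together so that they mate, and sequencing counts the barcode pairs among the diploids. Each replicate has its own calibration line, from reference interactions of the BCL2 family. Mating was done six times.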

The parent's heavy chain CDRs are GFTLNSYGIS, VIYSDGRRTFYGDSVK, GRAAGTFDS; each variant's own CDRs replace them letter for letter. This list holds designs with more than six substitutions. Values are apparent Kd, the geometric mean of the replicates that gave a signal; lower means stronger binding. "no signal" marks a missing value. The strain was present, yet no cells mated with the target were sequenced in any replicate, which points to weak or no binding. Entries are sorted by rising average, undetected variants last. Nonspecific signal, from three strains lacking the peptide, appeared in 1% of pairings of all heavy chain designs, centred on 120 nM (5% of these signals below 7.0 nM); values are not corrected for it. Values of this round are not directly comparable with the first-round values of the same sequences. The parent sequence was in this pool as ten entries: three were never detected, three once, and four in most replicates, with averages from 2.2 nM to 240 nM. The authors averaged sequences with at least three values out of six and counted those with two or fewer as poor binders.

GFDLNEYGIS | VIYADGVRTFYADSVK | GQLAGTFDL [En_HC]: 160 pM (6 of 6 replicates).
GFNLDEYGIS | VIYADGRRTFYQDDVK | GNVAGTFDS [En_HC]: 170 pM (6 of 6 replicates).
GFDLESYGIS | VIYADGRRTFYADKVK | GKNAGTFDI [En_HC]: 170 pM (6 of 6 replicates).
GFDLNEYGIS | VIYADGVRTFYTDNVK | GQNAGTFDS [En_HC]: 180 pM (6 of 6 replicates).
GFNLNEYGIS | VIYADGRRSFYSDSVK | GEEAGTFDV [En_HC]: 190 pM (6 of 6 replicates).
GFDLNEYGIS | VIYADGMRTAYVDSVK | GNVAGTFDT [En_Gen]: 210 pM (6 of 6 replicates).
GFDLNEYGIS | VIYADGMRTAYVDSVK | GTNAGTFDI [En_Gen]: 270 pM (6 of 6 replicates).
GFNLDEYGIS | VIYADGRRTAYADSVK | GNVAGTFDI [En_Gen]: 280 pM (6 of 6 replicates).
GFDLNEYGIS | VIYADGQRTAYADSVK | GNQAGTFDI [En_Gen]: 330 pM (6 of 6 replicates).
GFDLDEYGIS | VIYADGVRTAYSDSVK | GEVAGTFDL [En_Gen]: 330 pM (6 of 6 replicates).
GFDLNEYGIS | VIYADGVRTAYADSVK | GSNAGTFDV [En_Gen]: 340 pM (6 of 6 replicates).
GFDLDEYGIS | VIYADGMRTAYADNVK | GEVAGTFDL [En_Gen]: 350 pM (6 of 6 replicates).
GFDLDEYGIS | VIYADGMRTSYADSVK | GNVAGTFDL [En_Gen]: 360 pM (6 of 6 replicates).
GFDLNEYGIS | VIYADGLRTSYADSVK | GNVAGTFDV [En_Gen]: 380 pM (6 of 6 replicates).
GFDLNEYGIS | VIYADGRRTAYSDSVK | GETAGTFDV [En_Gen]: 410 pM (6 of 6 replicates).
GFDLNEYGIS | VIYADGQRTFYSDSVK | GNVAGTFDS [En_HC]: 420 pM (6 of 6 replicates).
GFDLNEYGIS | VIYADGMRTAYADQVK | GNNAGTFDV [En_Gen]: 450 pM (6 of 6 replicates).
GFDLNEYGIS | VIYADGQRTAYADSVK | GEAAGTFDV [En_Gen]: 500 pM (6 of 6 replicates).
GFDLNEYGIS | VIYADGRRTAYADKVK | GENAGTFDV [En_Gen]: 550 pM (6 of 6 replicates).
GFDLNEYGIS | VIYADGVRTSYADSVK | GQLAGTFDQ [En_HC]: 560 pM (6 of 6 replicates).
GFDINEYGIS | VIYADGRRTFYADSVK | GNQGGTFDM [En_HC]: 590 pM (6 of 6 replicates).
GFDLEDYGIS | VIYADGRRTQYADSVK | GEAAGTFDL [En_HC]: 650 pM (5 of 6 replicates).
GFDLNEYGIS | VIYADGVRTAYIDSVK | GEQAGTFDV [En_HC]: 680 pM (6 of 6 replicates).
GFDLNEYGIS | VIYADGMRTAYADSVK | GNAAGTFDI [En_Gen]: 700 pM (5 of 6 replicates).
GFDLNEYGIS | VIYADGRRTFYSDSVK | GEVAGTFVE [En_HC]: 2.3 nM (6 of 6 replicates).
GFDLNEYGIS | VIYADGMRTFYSDSVK | GNAGGTFDV [En_HC]: 3.3 nM (6 of 6 replicates).
GFDLDEYGIS | VIYADGMRTAYADSVK | GEVAGTFDI [En_Gen]: 4.9 nM (6 of 6 replicates).
GFDLNEYGIS | VIYADGMRSVYADSVK | GNNAGTFDV [En_Gen]: 5.0 nM (5 of 6 replicates).
GKSVDEYGIS | VIYADGMRAEYQNSVK | GTTGGDVFV [En_Gibbs]: 10 nM (1 of 6 replicates).
GYDIEEYGIS | VIYADGKKNAFANSFK | GKWAGTFDD [En_Gibbs]: 12 nM (2 of 6 replicates).
GFDIEEYGIS | VIYADGQRTVYADDVK | GIAKGSSLT [En_Gibbs]: 37 nM (1 of 6 replicates).
GEGLDEYGIS | VIYADGRKQSYSDSVK | GAIAGNFDA [En_Gibbs]: 82 nM (2 of 6 replicates).
GEDLQEYGIS | VIYADGFRQAYSEKVK | GQHAGFLVK [En_Gibbs]: 150 nM (2 of 6 replicates).
GFSLDEYGIS | VIYADGVRKHYADSVK | GNIAGYYFA [En_Gibbs]: no signal (0 of 6 replicates).
GNDLNEYGIS | VIYADGLRVMYAENVK | GQLDVVVLV [En_Gibbs]: no signal (0 of 6 replicates).
GFDIEDYGIS | VIYADGKRSSYSNSFK | GLMSGNMMV [En_Gibbs]: no signal (0 of 6 replicates).
GMDLNEYGIS | VIYADGLRTAYIDAVK | GKGSVIVGH [En_Gibbs]: no signal (0 of 6 replicates).
GFDLNEYGIS | VIYADGRRTAYSDSVK | GENAGFFDV [En_HC]: no signal (0 of 6 replicates).
GFNLDEYGIS | VIYADGYRRAYAQSVK | GMNSGTGVT [En_Gibbs]: no signal (0 of 6 replicates).
GEDLEEYGIS | VIYADGRRSAYADNVK | GMSGNFGMF [En_Gibbs]: no signal (0 of 6 replicates).
GDGLLEYGIS | VIYADGMREAYAEDVK | GQTGGTFVL [En_Gibbs]: no signal (0 of 6 replicates).
GFDLDEYGIS | VIYADGIRQYYVDNVK | GLLAGHTIT [En_Gibbs]: no signal (0 of 6 replicates).
GFSLNEYGIS | VIYADGKRRHYADSVK | GLISGFFDI [En_Gibbs]: no signal (0 of 6 replicates).
GDSLNEYGIS | VIYADGTRSVYTDKVK | GHAGGNFMS [En_Gibbs]: no signal (0 of 6 replicates).
GFDIEEYGIS | VIYADGVRAMYKSNFK | GKIAGTYLT [En_Gibbs]: no signal (0 of 6 replicates).
GFQLDEYGIS | VIYADGQRTAYSKNVK | GYIDFKRIG [En_Gibbs]: no signal (0 of 6 replicates).

A selection of 6 entries from above:

CDR-H1	CDR-H2	CDR-H3	group	apparent Kd	seen in
GEGLDEYGIS	VIYADGRKQSYSDSVK	GAIAGNFDA	En_Gibbs	82 nM	2 of 6
GFDLNEYGIS	VIYADGVRTSYADSVK	GQLAGTFDQ	En_HC	560 pM	6 of 6
GFDLNEYGIS	VIYADGMRTAYVDSVK	GNVAGTFDT	En_Gen	210 pM	6 of 6
GYDIEEYGIS	VIYADGKKNAFANSFK	GKWAGTFDD	En_Gibbs	12 nM	2 of 6
GNDLNEYGIS	VIYADGLRVMYAENVK	GQLDVVVLV	En_Gibbs	no signal	0 of 6
GFDLNEYGIS	VIYADGVRTFYTDNVK	GQNAGTFDS	En_HC	180 pM	6 of 6